The entries are a selection whose mix differs from that of the whole data set. Activity calls are given as the source filed them.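 Rule for the calls: active = fluorescence slope higher than the sample average by over 3 SD (cut at about -0.22 in these data, passing the limit was not always enough); inactive = the rest.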

By UniProt entry, the sequences of proteins in these tests, tags left out. Where a name states a change or a piece, a line headed by the entry shows the natural chain unless it says otherwise.
UniProt P62483: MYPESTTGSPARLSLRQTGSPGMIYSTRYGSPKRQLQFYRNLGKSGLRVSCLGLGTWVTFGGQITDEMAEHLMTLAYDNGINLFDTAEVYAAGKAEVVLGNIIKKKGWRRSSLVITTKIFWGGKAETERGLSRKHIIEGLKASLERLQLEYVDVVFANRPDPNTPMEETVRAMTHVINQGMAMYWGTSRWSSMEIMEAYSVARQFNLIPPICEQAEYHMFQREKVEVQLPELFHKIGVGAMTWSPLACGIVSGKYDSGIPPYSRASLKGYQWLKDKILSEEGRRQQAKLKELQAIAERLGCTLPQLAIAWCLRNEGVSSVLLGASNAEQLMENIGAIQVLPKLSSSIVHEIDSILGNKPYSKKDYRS

This assay deals with Voltage-gated potassium channel subunit beta-2 (Rattus norvegicus) (UniProt P62483). As to the kind of experiment: KvBeta enzyme negative modulators, primary screen, biochemical, NADPH fluorescence (AID 622).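 Note: slope of raw intensity against log time taken from 70 to 1610 s.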 To be noted: recombinant KvBeta, 4-cyanobenzaldehyde reduction, at 10 µM, active compounds read high.
Turning to `O=P(Nc1nccs1)(c1ccccc1)c1ccccc1`, the fluorescence slope is inactive: -0.597. The value for `Cc1nn(-c2ccccc2)c2c1P(=O)(N1CCOCC1)N(C)C(c1ccccc1)=N2` (configuration not stated) was inactive: -0.579; that for `Cc1ccc(OCC(=O)OC2CN3CCC2CC3)cc1` (configuration not stated) was inactive: -0.384.

Consider `Cc1cccc(OCC(=O)OC2CN3CCC2CC3)c1` (configuration not stated), for which the fluorescence slope is inactive: -0.451. The result for `CCOP1(=S)c2c(C)nn(CCC#N)c2N=C(c2ccccc2F)N1C` (configuration not stated) reads inactive: -0.495; that for `O=C(COc1ccccc1)OC1CN2CCC1CC2` (configuration not stated), inactive: -0.576. The value for `COP1(=S)c2c(C)nn(CCC#N)c2N=C(c2ccc(F)cc2)N1C` (configuration not stated) was inactive: -0.577.

These data come from PubChem BioAssay AID622 (Vanderbilt High Throughput Screening Facility, 2007).
